The text below walks through data of PubChem BioAssay AID624304 (Sanford-Burnham Center for Chemical Genomics, 2012).

The list shows a part of the results, in another mix than the full data. Some salts and complexes are drawn in separate pieces, as the source files them; their charges need not balance. Active and inactive are the calls of the source.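 How the source made its calls: active means interference check ratio from 0.5 to 1.5 plus GFP to RFP signal ratio inhibition reaching or exceeding a fixed threshold (cut at about 30% in these data, passing the limit was not always enough); inactive means the rest.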

A word on the inhibition: it is the change of the read-out against control, counted positive when it falls.

This test can be described thus: gst-4 reporter inhibition in live C. elegans – whole organism, uHTS, GFP/RFP fluorescence ratio, strain VP596, SKN-1 inhibitor project, primary screen (AID 624304). To be noted: C. elegans VP596 Pgst-4::GFP/RFP ratio, acrylamide-induced, 24 h; at 21.8 µM; stronger effect = higher value.
Consider `CCOC(=O)c1ccc(NP(C)(=O)Oc2ccc(Cl)cc2)cc1` (centres undefined), for which the inhibition is inactive: 3%.
Next, `CP(=O)(OC12CC3CC(CC(C3)C1)C2)OC12CC3CC(CC(C3)C1)C2`: inactive: -5.66%.
For the compound `O=C(OCCCN1CCCC1)C(O)(c1ccccc1)C1CCCCC1` (centres undefined), the inhibition was inactive: -0.0877%.
As for `COc1ccccc1OP(C)(=O)Nc1c(C)n(C)n(-c2ccccc2)c1=O` (centres undefined), the inhibition is inactive: 7.75%.
Then `CCc1ccc(OP(C)(=O)Nc2cccnc2)cc1` (centres undefined), with inactive: 7.47%.
`CP(=O)(Oc1ccccc1)N1CCOC1=O` (centres undefined): the inhibition was inactive: 31.7%.
Next, `COc1ccc(OP(C)(=O)Nc2ccc(Br)cc2)cc1` (centres undefined): inactive: 1.42%; `CCN(CC)CC(O)COC(=O)C(O)(c1ccccc1)C1CCCCC1` (centres undefined): inactive: -0.563%; `CN(C)C(=O)c1c([N+](=O)[O-])cc([N+](=O)[O-])cc1[N+](=O)[O-]`: inactive: 20.6%.
For `COc1ccccc1OP(C)(=O)Nc1ccccc1Br` (centres undefined), the inhibition was inactive: -5.12%.
Next, `CC(C)(C)c1ccc(OP(C)(=O)O)cc1`: inactive: 28%; `CP(=O)(Nc1ccc(Cl)cc1)Oc1ccc(F)cc1` (centres undefined): inactive: 2.77%.
On to `COc1ccc(OP(C)(=O)Nc2ccccn2)cc1` (centres undefined), for which the inhibition was inactive: 4.79%.
Then `CN(C)CCOC(=O)C(O)(c1ccccc1)C1CCCC1` (centres undefined), with inactive: 17.9%; and `COc1ccccc1OP(C)(=O)Nc1ccc(Br)cc1` (centres undefined), with inactive: 6.86%.
Then `COc1ccccc1OP(C)(=O)Nc1ccc(C)cc1C` (centres undefined), with inactive: 10.7%; and `CP(=O)(Nc1ccccn1)Oc1ccccc1` (centres undefined), with inactive: 10.3%.
`CCc1ccc(OP(C)(=O)O)cc1`: the inhibition was inactive: -10.5%.
In the case of `Cc1c(NP(C)(=O)Oc2ccc(C(C)C)cc2)c(=O)n(-c2ccccc2)n1C` (centres undefined), the inhibition was inactive: -1.94%.
Then `O=[N+]([O-])c1cc([N+](=O)[O-])c(Nc2ccccn2)c([N+](=O)[O-])c1`, with inactive: 5.07%; and `COc1ccccc1OP(C)(=O)Nc1ccc(C)c(C)c1` (centres undefined), with inactive: 3.14%.
Next, `COc1ccc(OP(C)(=O)Nc2ccccc2Br)cc1` (centres undefined): inactive: 3.69%.
On to `Cc1cc(C)cc(OP(C)(=O)Nc2cccc(C(F)(F)F)c2)c1` (centres undefined), for which the inhibition is inactive: 0.0677%.
Next, `O=C1C(O)=C([N+](=O)[O-])C(=O)C(O)=C1[N+](=O)[O-]`: inactive: 1.71%.
Next, `CP(=O)(Nc1ccc(Cl)cc1Cl)Oc1ccccc1` (centres undefined): inactive: -0.321%.
As to `CCCCCCCCCCCCCCCC1C[N+](C)(C)CCOP(C)(=O)O1` (centres undefined), the inhibition is active: 46.6%.
Then `CP(=O)(OCCOc1ccccc1)OCCOc1ccccc1`, with inactive: 1.54%; and `CCOC(=O)c1ccc(NP(C)(=O)Oc2ccc(F)cc2)cc1` (centres undefined), with inactive: 1.81%; and `COc1ccc(OP(C)(=O)Nc2ccc(SC(F)(F)F)cc2)cc1` (centres undefined), with inactive: -1.07%.
With `CCN(CC)CCCNc1ccccc1[N+](=O)[O-].O=[N+]([O-])c1cc([N+](=O)[O-])c(O)c([N+](=O)[O-])c1`, the inhibition was inactive: 13%.
Then `CP(=O)(Nc1ccccc1)Oc1ccc(F)cc1` (centres undefined), with inactive: 6.92%; and `O=[N+]([O-])c1cc([N+](=O)[O-])c(OC2CCCCC2O)c([N+](=O)[O-])c1` (centres undefined), with inactive: 10.7%; and `CCCCCOc1ccc(NP(C)(=O)Oc2ccc(Cl)cc2Cl)cc1` (centres undefined), with inactive: 12.9%.
Then `Cc1c([N+](=O)[O-])cc([N+](=O)[O-])c(Br)c1[N+](=O)[O-]`, with inactive: 1.18%; and `CCN(CC)CCCOC(=O)C(O)(c1ccccc1)C1CCCCC1` (centres undefined), with inactive: 20.5%; and `CP(=O)(Nc1ccccc1F)Oc1ccccc1` (centres undefined), with inactive: 6.57%.
Then `CC(C)c1ccc(OP(C)(=O)Nc2ccc(SC(F)(F)F)cc2)cc1` (centres undefined), with inactive: -0.38%; and `O=[N+]([O-])c1cc([N+](=O)[O-])c(Nc2ccc(Cl)cc2)c([N+](=O)[O-])c1`, with inactive: 2.06%.
With `COc1ccc2c(c1O)-c1c(O)c(OC)cc3c1[C@H](C2)[N+](C)(C)CC3.O=[N+]([O-])c1cc([N+](=O)[O-])c([O-])c([N+](=O)[O-])c1[O-]`, the inhibition was inactive: -1.42%.
Then `O=C(OC1CN2CCC1CC2)c1ccc([N+](=O)[O-])cc1` (centres undefined), with inactive: 8.09%; and `O=C(OCCN1CCN(CCOCc2ccccc2)CC1)C(O)(c1ccccc1)c1ccccc1`, with inactive: 5.82%.
Next, `CCOP(C)(=S)SCC(=O)NC(C)(CC)C(=O)O` (centres undefined): inactive: -6.99%; `CP(=O)(Nc1ccc(SC(F)(F)F)cc1)Oc1ccc(F)cc1` (centres undefined): inactive: 12.2%; `Cc1ccccc1NP(C)(=O)Nc1ccccc1C`: inactive: 14.4%.
Take `O=[N+]([O-])c1cc([N+](=O)[O-])c(C(F)(F)F)c([N+](=O)[O-])c1O`: the inhibition is inactive: 6.42%.
Then `CP(=O)(Nc1ccc2c(c1)OCCO2)Oc1ccccc1` (centres undefined), with inactive: 6.17%.
Consider `CN(C)CCOC(=O)C(O)(c1ccccc1)C1CCCCC1` (centres undefined), for which the inhibition is inactive: -4.58%.
Then `COc1ccc(NP(C)(=O)Oc2ccccc2OC)cc1` (centres undefined), with inactive: 4.72%.
For the compound `COc1ccc(OP(C)(=O)Nc2cccc(Br)c2)cc1` (centres undefined), the inhibition is inactive: -2.84%.
